The term viability denotes a read-out of living cells in per cent, often relative to untreated cells.

The list shows a part of the results, in another mix than the full data. Some tests of the compounds listed are not included; inactive here does not mean inactive elsewhere. Activity calls are given as the source filed them.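 Rule for the calls: active = viability at or below 30%; inactive = viability above 30%.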

The assay in a line: endothelial cell growth inhibition – HUVEC, 384-well, primary screen (AID 648).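 Note: 100% = median luminescence of DMSO-only cell control wells on each plate.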 Conditions: HUVEC proliferation, CellTiter-Glo luminescence, 72 h; hits give low values; screened at 10 µM (by protocol).
On to `CN(C)c1cccc(C(=O)NCC2(N(C)C)CCCCC2)c1`, for which the viability is inactive: 96.9%.

Consider `O=C(OC1CN2CCC1CC2)C(CO)(c1ccccc1)c1ccccc1` (configuration not stated), for which the viability was inactive: 108%.

For the origin of these results see PubChem BioAssay AID648 (SRMLSC, 2007).
